From ChEMBL document CHEMBL1135763, “Discovery of aminothiazole inhibitors of cyclin-dependent kinase 2: synthesis, X-ray crystallographic analysis, and biological activities” (J Med Chem, 2002)

System: A2780
Assay: cells
Details: Homo sapiens

`CC(C)(C)c1cnc(CSc2cnc(NC(=O)Cc3ccc(CNC(CO)CO)cc3)s2)o1` showed an IC50 of 30 nM.
